Results from patent US20130274254A1, “INHIBITORS OF CYTOCHROME P450 (CYP3A4)” (Gilead Sciences, Inc., priority 2010, published 2013).

Chains of the proteins cited; added tags and fusions are not shown. Residues count along the entry.
UniProt P08684, 2-503 limits assumed: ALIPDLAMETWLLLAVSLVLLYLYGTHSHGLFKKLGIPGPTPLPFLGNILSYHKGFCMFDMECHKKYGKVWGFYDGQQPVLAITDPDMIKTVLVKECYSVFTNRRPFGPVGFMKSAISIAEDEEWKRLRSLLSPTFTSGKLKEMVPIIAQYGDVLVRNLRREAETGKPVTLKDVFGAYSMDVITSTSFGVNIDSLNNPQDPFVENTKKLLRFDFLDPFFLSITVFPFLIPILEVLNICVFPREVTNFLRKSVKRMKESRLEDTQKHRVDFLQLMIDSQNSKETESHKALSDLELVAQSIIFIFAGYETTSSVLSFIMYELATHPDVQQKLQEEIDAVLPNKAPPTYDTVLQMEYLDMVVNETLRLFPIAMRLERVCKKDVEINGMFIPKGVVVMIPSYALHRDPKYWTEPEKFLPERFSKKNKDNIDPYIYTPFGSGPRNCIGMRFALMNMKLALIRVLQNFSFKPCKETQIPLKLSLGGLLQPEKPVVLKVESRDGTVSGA

Assays:
[1] = biological target: T1, CYP3A4 (Homo sapiens, UniProt P08684); experiment: CYP3A inhibition assay, testosterone 6β-hydroxylase activity in pooled human hepatic microsomal fraction; details: read-out: CYP3A4 IC50 (μM) (testosterone), human hepatic microsomes, 0.5 mg/mL microsomal protein, 50 μM substrate
[2] = biological target: T1, CYP3A4; experiment: CYP3A inhibition assay, midazolam 1'-hydroxylase activity in pooled human hepatic microsomal fraction; format: biochemical; details: read-out: CYP3A4 IC50 (μM) (midazolam), human hepatic microsomes, 0.25 mg/mL microsomal protein

Row | SMILES | IC50 [1] | IC50 [2]
1 | O=C(N[C@@H](CC[C@@H](Cc1ccccc1)NC(=O)[C@@H]1C[C@@H](O)CN1C(=O)N1CCCCC1)Cc1ccccc1)OCc1cncs1 | 0.25 µM | < 0.1 µM
2 | CC(C)CC(=O)N[C@@H](CCN1CCOCC1)C(=O)N[C@H](CC[C@H](Cc1ccccc1)NC(=O)OCc1cncs1)Cc1ccccc1 | 0.38 µM | 
3 | O=C(N[C@H](CC[C@H](Cc1ccccc1)NC(=O)[C@H](CCN1CCOCC1)NC(=O)OCc1ccccc1)Cc1ccccc1)OCc1cncs1 | 0.4 µM | < 0.1 µM
4 | CC(C)N(C)C(=O)N1C[C@H](O)C[C@H]1C(=O)N[C@@H](CC[C@@H](Cc1ccccc1)NC(=O)OCc1cncs1)Cc1ccccc1 | 0.27 µM | 0.13 µM
5 | CC(C)OC(=O)N[C@@H](CCN1CCOCC1)C(=O)N[C@H](CC[C@H](Cc1ccccc1)NC(=O)OCc1cncs1)Cc1ccccc1 | 0.4 µM | 
6 | O=C(N[C@@H](CC[C@@H](Cc1ccccc1)NC(=O)[C@H](CO)NC(=O)N1CCCCC1)Cc1ccccc1)OCc1cncs1 | 0.2 µM | < 0.1 µM
7 | CC(C)c1nc(CN(C)C(=O)N[C@H](C(=O)N[C@H](CC[C@H](Cc2ccccc2)NC(=O)NCc2cccs2)Cc2ccccc2)C(C)C)cs1 | 1.5 µM | 0.6 µM
8 | CC(C)c1nc(CN(C)C(=O)N[C@H](C(=O)N[C@H](CC[C@H](Cc2ccccc2)NC(=O)OCc2ccccn2)Cc2ccccc2)C(C)C)cs1 | 1.6 µM | 0.43 µM
9 | O=C(N[C@H](CC[C@H](Cc1ccccc1)NC(=O)[C@H](CCN1CCOCC1)NS(=O)(=O)Cc1ccccc1)Cc1ccccc1)OCc1cncs1 | 0.47 µM | < 0.1 µM
10 | CC(C)N(C)C(=O)N1C[C@@H](N2CCOCC2)C[C@H]1C(=O)N[C@H](CC[C@H](Cc1ccccc1)NC(=O)OCc1cncs1)Cc1ccccc1 | 0.58 µM | 0.21 µM
11 | CC(C)c1nc(CN(C)C(=O)N[C@H](C(=O)N[C@H](CC[C@H](Cc2ccccc2)NC(=O)OCc2cnco2)Cc2ccccc2)C(C)C)cs1 | 0.52 µM | 0.21 µM
12 | CC(C)c1nc(CN(C)C(=O)N[C@H](C(=O)N[C@H](CC[C@H](Cc2ccccc2)NC(=O)OCC2CCNC2)Cc2ccccc2)C(C)C)cs1 (some centres unmarked) | 1 µM | 0.35 µM
13 | CC(C)OC(=O)N[C@H](CC[C@H](Cc1ccccc1)NC(=O)[C@@H](NC(=O)N(C)Cc1csc(C(C)C)n1)C(C)C)Cc1ccccc1 | 1.6 µM | 0.5 µM
14 | CC(C)c1nc(CN(C)C(=O)N[C@H](C(=O)N[C@H](CC[C@H](Cc2ccccc2)NC(=O)OCc2cncn2C)Cc2ccccc2)C(C)C)cs1 | 0.29 µM | < 0.1 µM
15 | CC(C)c1nc(CN(C)C(=O)N[C@H](C(=O)N[C@H](CC[C@H](Cc2ccccc2)NC(=O)OCc2cccs2)Cc2ccccc2)C(C)C)cs1 | 2 µM | 1.1 µM
16 | O=C(N[C@H](CC[C@H](Cc1ccccc1)NC(=O)[C@H](CCN1CCOCC1)NC(=O)N1CCCCC1)Cc1ccccc1)OCc1cncs1 | 0.29 µM | 0.19 µM
17 | O=C(N[C@H](CC[C@H](Cc1ccccc1)NC(=O)[C@H](CO)NC(=O)N1CCCCC1)Cc1ccccc1)OCc1cncs1 | 0.31 µM | < 0.1 µM
18 | CC(C)c1nc(CN(C)C(=O)N[C@H](C(=O)N[C@H](CC[C@H](Cc2ccccc2)NC(=O)NCC(C)(C)C)Cc2ccccc2)C(C)C)cs1 | 2.1 µM | 0.6 µM
19 | CC(C)c1nc(CN(C)C(=O)N[C@H](C(=O)N[C@H](CC[C@H](Cc2ccccc2)NC(=O)OCC(C)(C)C)Cc2ccccc2)C(C)C)cs1 | 2.2 µM | 0.87 µM
20 | O=C(N[C@H](CC[C@H](Cc1ccccc1)NC(=O)[C@@H]1C[C@H](N2CCOCC2)CN1C(=O)N1CCCCC1)Cc1ccccc1)OCc1cncs1 | 0.47 µM | 0.12 µM
